Laboratory results reported in ChEMBL document CHEMBL5528082 (J Med Chem, 2024).

Experiment: Selectivity ratio of IC50 for human DHFR to IC50 for Staphylococcus aureus DHFR expressed in Escherichia coli BL21 (DE3) using DHF as substrate

For `CC(C)c1cc(OCC2CC2)c(I)cc1Oc1cnc(N)nc1N`, which Ratio IC50 is on record?
Its Ratio IC50 is 4320.

Which Ratio IC50 does the source give for `COc1cc(C(C)C)c(Oc2cnc(N)nc2N)cc1-c1ccc(C(C)C)cc1` here?
The Ratio IC50 was 1610.
